The experiment has as its target SHP2 (Homo sapiens (Human), UniProt Q06124). Kind of experiment: SHP2 allosteric inhibition assay (DiFMUP prompt fluorescence). Format: biochemical. To be noted: 0.5 nM SHP2 activated with 0.5 μM peptide IRS1_pY1172(dPEG8)pY1222; substrate DiFMUP; 25° C.

The chains behind the UniProt entries cited, without tags or fusion partners.
UniProt Q06124, whole entry: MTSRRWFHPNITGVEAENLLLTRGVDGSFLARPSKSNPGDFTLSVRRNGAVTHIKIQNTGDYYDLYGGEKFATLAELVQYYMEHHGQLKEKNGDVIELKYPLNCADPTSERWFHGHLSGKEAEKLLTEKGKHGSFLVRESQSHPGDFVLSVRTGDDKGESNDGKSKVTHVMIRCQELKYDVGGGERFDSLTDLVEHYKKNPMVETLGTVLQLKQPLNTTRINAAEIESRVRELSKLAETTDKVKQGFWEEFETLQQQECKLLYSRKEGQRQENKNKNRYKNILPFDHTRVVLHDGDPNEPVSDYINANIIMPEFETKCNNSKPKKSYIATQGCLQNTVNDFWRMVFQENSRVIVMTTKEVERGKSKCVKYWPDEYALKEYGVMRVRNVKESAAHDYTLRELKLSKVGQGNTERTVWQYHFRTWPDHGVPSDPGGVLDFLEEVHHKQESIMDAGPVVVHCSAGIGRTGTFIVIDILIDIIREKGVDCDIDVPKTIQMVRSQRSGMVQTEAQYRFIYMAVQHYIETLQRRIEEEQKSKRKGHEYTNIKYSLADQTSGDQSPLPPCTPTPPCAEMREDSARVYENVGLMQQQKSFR

Regarding `COc1nccc(Sc2c(N)nc(N3CCC4(CC3)CO[C@@H](C)[C@H]4N)n(C)c2=O)c1C(F)(F)F`, the IC50 – broadly, the midpoint of a concentration-inhibition curve – is 17 nM.

As to `C[C@@H]1OCC2(CCN(c3nc(N)c(Sc4ccnc(NC5CC5)c4Cl)c(=O)n3C)CC2)[C@@H]1N`, the IC50 was 32 nM.

For the origin of these results see patent US10308660B2, “Compounds and compositions for inhibiting the activity of SHP2” (Novartis AG, priority 2015, dated 2019).
